# “And” between values parts separate entries of the source, which are not always exact repeats. Equal values may be shown once. Only a part is listed here, and it is no random draw. Inconclusive results are not listed. The source made the active and inactive calls. Calls follow the shape of the dose curve; as a rule, active = well fitted activation curve with a large enough effect; inconclusive = small, poorly fitted or top-dose-only effect; inactive = no such curve, though single readings can be large or run the other way.
# Assay: qHTS Assay for Enhancers of SMN2 Splice Variant Expression; also: % of control where 0% means no effect; nearly all actives have a fitted effect of over 55% in size
# Conditions: HEK293 SMN2-luciferase splicing reporter, luminescence, 30-36 h; at 46.1 µM (top of the series)
row,SMILES,"activity change, positive = activation"
1,CN(CCCl)CCCl,inactive: -1.97% and inactive: -5.59%
2,O=[N+]([O-])C(Cl)(Cl)Cl,inactive: 6.86%
